Laboratory results from patent publication US20250195530A1, “POLQ INHIBITORS” (ASTRAZENECA AB, priority 2022, published 2025).

Chains of the proteins cited; added tags and fusions are not shown. Residues count along the entry.
UniProt O75417, 1780-2590: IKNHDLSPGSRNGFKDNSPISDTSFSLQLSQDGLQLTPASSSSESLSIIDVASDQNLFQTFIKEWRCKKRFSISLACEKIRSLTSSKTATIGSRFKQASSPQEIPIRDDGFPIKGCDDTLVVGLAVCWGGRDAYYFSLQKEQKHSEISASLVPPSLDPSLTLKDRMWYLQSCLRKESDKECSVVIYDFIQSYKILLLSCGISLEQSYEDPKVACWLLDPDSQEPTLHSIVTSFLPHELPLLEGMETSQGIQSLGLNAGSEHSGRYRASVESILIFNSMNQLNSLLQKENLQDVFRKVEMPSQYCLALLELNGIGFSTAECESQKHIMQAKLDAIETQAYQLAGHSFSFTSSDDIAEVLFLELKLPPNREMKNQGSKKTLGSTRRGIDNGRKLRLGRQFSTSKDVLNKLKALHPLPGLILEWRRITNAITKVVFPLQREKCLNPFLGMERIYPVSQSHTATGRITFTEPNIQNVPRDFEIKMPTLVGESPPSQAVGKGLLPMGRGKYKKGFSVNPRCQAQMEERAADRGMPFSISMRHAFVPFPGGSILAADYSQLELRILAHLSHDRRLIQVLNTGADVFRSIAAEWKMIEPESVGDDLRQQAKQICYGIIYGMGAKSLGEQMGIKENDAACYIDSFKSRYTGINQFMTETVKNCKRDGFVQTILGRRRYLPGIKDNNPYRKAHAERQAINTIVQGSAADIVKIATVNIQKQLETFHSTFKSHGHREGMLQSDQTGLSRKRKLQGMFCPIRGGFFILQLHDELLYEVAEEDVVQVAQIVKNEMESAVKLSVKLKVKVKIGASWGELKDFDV

Target: isolated polymerase domain (I1780-V2590) of DNA polymerase theta (Polθ) (Homo sapiens (Human), UniProt O75417)
Experiment: biochemical

Row | IC50 [nM] | SMILES
1 | 3.16 | CC1(Oc2ncnc3c2nc(-c2ccc(OCCCOCCC(=O)O)cc2Cl)n3Cc2cccc(Cl)c2)CC1 [Example T449, 3-(3-(3-chloro-4-(9-(3-chlorobenzyl)-6-(1-methylcyclopropoxy)-9H-purin-8-yl)phenoxy)propoxy)propanoic acid]
2 | 5.01 | CC(CCOc1cccc(-c2nc3c(OC4(C)CC4)ncnc3n2Cc2cccc(Cl)c2)c1Cl)C(=O)O (racemic) [Example T293, 4-(2-chloro-3-(9-(3-chlorobenzyl)-6-(1-methylcyclopropoxy)-9H-purin-8-yl)phenoxy)-2-methylbutanoic acid]
3 | 6.31 | Cc1ccnc(Cn2c(-c3ccc(OCCC4(O)COC4)cc3Cl)nc3c(OC4(C)CC4)ncnc32)c1 [Example T334, 3-(2-(3-chloro-4-(6-(1-methylcyclopropoxy)-9-((4-methylpyridin-2-yl)methyl)-9H-purin-8-yl)phenoxy)ethyl)oxetan-3-ol]
4 | 5.01 | Cc1ccnc(Cn2c(-c3ccc(N4CCN5CCC4C5)cc3Cl)nc3c(OC4(C)CC4)ncnc32)c1 (racemic) [Example T493, 8-(4-(1,4-diazabicyclo[3.2.1]octan-4-yl)-2-chlorophenyl)-6-(1-methylcyclopropoxy)-9-((4-methylpyridin-2-yl)methyl)-9H-purine]
5 | 3.98 | COc1ccc(Cl)cc1Cn1c(-c2cccc(CCCC(=O)O)c2Cl)nc2c(OC3(C)CC3)ncnc21 [Example U62, 4-(2-chloro-3-(9-(5-chloro-2-methoxybenzyl)-6-(1-methylcyclopropoxy)-9H-purin-8-yl)phenyl)butanoic acid]
6 | 5.01 | CC1(Oc2ncnc3c2nc(-c2ccc(CC(N)=O)cc2Cl)n3Cc2cccc(Cl)c2)CC1 [Example T45, 2-(3-chloro-4-(9-(3-chlorobenzyl)-6-(1-methylcyclopropoxy)-9H-purin-8-yl)phenyl)acetamide]
7 | 2.51 | Cc1ccnc(Cn2c(-c3ccc(CC(=O)N4CCNCC4)cc3Cl)nc3c(OC4(C)CC4)ncnc32)c1 [Example T495, 2-(3-chloro-4-(6-(1-methylcyclopropoxy)-9-((4-methylpyridin-2-yl)methyl)-9H-purin-8-yl)phenyl)-1-(piperazin-1-yl)ethan-1-one]
8 | 3.16 | COc1ccc(Cl)c(F)c1Cn1c(-c2ccc(OCCC(C)C(=O)O)cc2Cl)nc2c(OC3(C)CC3)ncnc21 (racemic) [Example U57, 4-(3-chloro-4-(9-(3-chloro-2-fluoro-6-methoxybenzyl)-6-(1-methylcyclopropoxy)-9H-purin-8-yl)phenoxy)-2-methylbutanoic acid]
9 | 3.16 | COC(=O)NCCOc1ccc(-c2nc3c(OC4(C)CC4)ncnc3n2Cc2cc(C)ccn2)c(Cl)c1 [Example T228, methyl (2-(3-chloro-4-(6-(1-methylcyclopropoxy)-9-((4-methylpyridin-2-yl)methyl)-9H-purin-8-yl)phenoxy)ethyl)carbamate]
10 | 2.51 | Cc1cc(OCCN2CCN(C)CC2)ncc1-c1nc2c(OC3(C)CC3)ncnc2n1Cc1ccccc1 [Example C3, 9-benzyl-8-(4-methyl-6-(2-(4-methylpiperazin-1-yl)ethoxy)pyridin-3-yl)-6-(1-methylcyclopropoxy)-9H-purine]
11 | 5.01 | Cc1cccc(Cn2c(-c3ccc(CC(N)=O)cc3Cl)nc3c(OC4(C)CC4)ncnc32)c1 [Example T99, 2-(3-chloro-4-(9-(3-methylbenzyl)-6-(1-methylcyclopropoxy)-9H-purin-8-yl)phenyl)acetamide]
12 | 6310 | Cc1noc(C)c1Cn1c(-c2ccc(CC(N)=O)cc2Cl)nc2c(OC3(C)CC3)ncnc21 [Example T27, 2-(3-chloro-4-(9-((3,5-dimethylisoxazol-4-yl)methyl)-6-(1-methylcyclopropoxy)-9H-purin-8-yl)phenyl)acetamide]
13 | 25.1 | Cc1ccnc(Cn2c(-c3ccc(C(=O)N4CCC[C@@H]4CO)cc3Cl)nc3c(OC4(C)CC4)ncnc32)c1 [Example T459, (R)-(3-chloro-4-(6-(1-methylcyclopropoxy)-9-((4-methylpyridin-2-yl)methyl)-9H-purin-8-yl)phenyl)(2-(hydroxymethyl)pyrrolidin-1-yl)methanone]
14 | 15.8 | Cc1cnc(Cn2c(-c3ccc(OC4CCCNCC4)cc3Cl)nc3c(OC4(C)CC4)ncnc32)s1 (single isomer, unassigned) [Example T243, 2-((8-(4-(azepan-4-yloxy)-2-chlorophenyl)-6-(1-methylcyclopropoxy)-9H-purin-9-yl)methyl)-5-methylthiazole]
15 | 631 | Cc1cc(Cn2c(-c3ccc(CC(N)=O)cc3Cl)nc3c(OC4(C)CC4)ncnc32)n(C)n1 [Example T32, 2-(3-chloro-4-(9-((1,3-dimethyl-1H-pyrazol-5-yl)methyl)-6-(1-methylcyclopropoxy)-9H-purin-8-yl)phenyl)acetamide]
16 | 5.01 | CC1(Oc2ncnc3c2nc(-c2ccc(OCCC(=O)O)cc2Cl)n3Cc2cccc(Cl)c2)CC1 [Example T87, 3-(3-chloro-4-(9-(3-chlorobenzyl)-6-(1-methylcyclopropoxy)-9H-purin-8-yl)phenoxy)propanoic acid]
17 | 3.98 | CC(OCCOc1ccc(-c2nc3c(OC4(C)CC4)ncnc3n2Cc2cccc(Cl)c2)c(Cl)c1)C(=O)O (racemic) [Example T305, rac-(R)-2-(2-(3-chloro-4-(9-(3-chlorobenzyl)-6-(1-methylcyclopropoxy)-9H-purin-8-yl)phenoxy)ethoxy)propanoic acid]
18 | 7.94 | Cc1cnc(Cn2c(-c3cccc(OCCCN4CC[C@@H](O)C4)c3Cl)nc3c(OC4(C)CC4)ncnc32)s1 [Example T392, (R)-1-(3-(2-chloro-3-(6-(1-methylcyclopropoxy)-9-((5-methylthiazol-2-yl)methyl)-9H-purin-8-yl)phenoxy)propyl)pyrrolidin-3-ol]
19 | 7.94 | CC1(Oc2ncnc3c2nc(-c2ccc(CC(N)=O)cc2Cl)n3Cc2ccc(F)cc2)CC1 [Example T43, 2-(3-chloro-4-(9-(4-fluorobenzyl)-6-(1-methylcyclopropoxy)-9H-purin-8-yl)phenyl)acetamide]
20 | 6.31 | CC1(Oc2ncnc3c2nc(-c2cccc(OCCCOCC(=O)O)c2Cl)n3Cc2cccc(Cl)c2)CC1 [Example T304, 2-(3-(2-chloro-3-(9-(3-chlorobenzyl)-6-(1-methylcyclopropoxy)-9H-purin-8-yl)phenoxy)propoxy)acetic acid]
21 | 6.31 | CC(=O)NCCc1ccc(-c2nc3c(OC4(C)CC4)ncnc3n2Cc2cc(C)ccn2)c(Cl)c1 [Example T212, N-(3-chloro-4-(6-(1-methylcyclopropoxy)-9-((4-methylpyridin-2-yl)methyl)-9H-purin-8-yl)phenethyl)acetamide]
22 | 3.98 | Cc1ccnc(Cn2c(-c3ccc(CC(=O)N4CCCNCC4)cc3Cl)nc3c(OC4(C)CC4)ncnc32)c1 [Example T589, 2-(3-chloro-4-(6-(1-methylcyclopropoxy)-9-((4-methylpyridin-2-yl)methyl)-9H-purin-8-yl)phenyl)-1-(1,4-diazepan-1-yl)ethan-1-one]
23 | 7.94 | Cc1ccnc(Cn2c(-c3ccc(O[C@H]4CCN(C(=O)[C@@H](C)O)C4)cc3Cl)nc3c(OC4(C)CC4)ncnc32)c1 [Example T584, (R)-1-((S)-3-(3-chloro-4-(6-(1-methylcyclopropoxy)-9-((4-methylpyridin-2-yl)methyl)-9H-purin-8-yl)phenoxy)pyrrolidin-1-yl)-2-hydroxypropan-1-one]
24 | 3.98 | CC(CCOc1ccc(-c2nc3c(OC4(C)CC4)ncnc3n2Cc2cccc(F)c2F)c(Cl)c1)C(=O)O (single isomer, unassigned) [Example T262, 4-(3-chloro-4-(9-(2,3-difluorobenzyl)-6-(1-methylcyclopropoxy)-9H-purin-8-yl)phenoxy)-2-methylbutanoic acid]
25 | 2 | CN1CCCC1CCOc1ccc(-c2nc3c(OC4(C)CC4)ncnc3n2Cc2ccccc2)c(Cl)c1 (racemic) [Example D2, 9-benzyl-8-(2-chloro-4-(2-(1-methylpyrrolidin-2-yl)ethoxy)phenyl)-6-(1-methylcyclopropoxy)-9H-purine]
26 | 6.31 | Cc1ccnc(Cn2c(-c3ccc(OC4CCS(=O)(=O)CC4)cc3Cl)nc3c(OC4(C)CC4)ncnc32)c1 [Example T335, 4-(3-chloro-4-(6-(1-methylcyclopropoxy)-9-((4-methylpyridin-2-yl)methyl)-9H-purin-8-yl)phenoxy)tetrahydro-2H-thiopyran 1,1-dioxide]
27 | 7.94 | Cc1ccnc(Cn2c(-c3ccc(OCC(=O)N4CC[C@H](F)C4)cc3Cl)nc3c(OC4(C)CC4)ncnc32)c1 [Example T420, (S)-2-(3-chloro-4-(6-(1-methylcyclopropoxy)-9-((4-methylpyridin-2-yl)methyl)-9H-purin-8-yl)phenoxy)-1-(3-fluoropyrrolidin-1-yl)ethan-1-one]
28 | 7.94 | COCCOc1ccc(-c2nc3c(OC4(C)CC4)ncnc3n2Cc2cc(C)ccn2)c(Cl)c1 [Example T125, 8-(2-chloro-4-(2-methoxyethoxy)phenyl)-6-(1-methylcyclopropoxy)-9-((4-methylpyridin-2-yl)methyl)-9H-purine]
29 | 20 | CC1(Oc2ncnc3c2nc(-c2ccc(OCCN4CCNCC4)cc2Cl)n3Cc2ncccc2F)CC1 [Example T351, 8-(2-chloro-4-(2-(piperazin-1-yl)ethoxy)phenyl)-9-((3-fluoropyridin-2-yl)methyl)-6-(1-methylcyclopropoxy)-9H-purine]
30 | 5.01 | Cc1ccnc(Cn2c(-c3ccc(CC(=O)NCC(F)F)cc3Cl)nc3c(OC4(C)CC4)ncnc32)c1 [Example T165, 2-(3-chloro-4-(6-(1-methylcyclopropoxy)-9-((4-methylpyridin-2-yl)methyl)-9H-purin-8-yl)phenyl)-N-(2,2-difluoroethyl)acetamide]

Row | SMILES | IC50 [nM]
31 | Cc1ccnc(Cn2c(-c3ccc(OCCN4CCN(C)CC4)cc3Cl)nc3c(OC(C)(C)C)nccc32)c1 [Example T610, 4-(tert-butoxy)-2-(2-chloro-4-(2-(4-methylpiperazin-1-yl)ethoxy)phenyl)-1-((4-methylpyridin-2-yl)methyl)-1H-imidazo[4,5-c]pyridine] | 200
32 | CC1(Oc2cccc3c2nc(-c2ccc(OCCC(=O)O)cc2Cl)n3Cc2cccc(Cl)c2)CCC1 [Example T406, 3-(3-chloro-4-(1-(3-chlorobenzyl)-4-(1-methylcyclobutoxy)-1H-benzo[d]imidazol-2-yl)phenoxy)propanoic acid] | 10
